From PubChem BioAssay AID686992 (Broad Institute, 2013) come the findings set out here.

Sequences of proteins named here, by UniProt entry; tags and fusion partners are left off.
UniProt P16581, whole entry: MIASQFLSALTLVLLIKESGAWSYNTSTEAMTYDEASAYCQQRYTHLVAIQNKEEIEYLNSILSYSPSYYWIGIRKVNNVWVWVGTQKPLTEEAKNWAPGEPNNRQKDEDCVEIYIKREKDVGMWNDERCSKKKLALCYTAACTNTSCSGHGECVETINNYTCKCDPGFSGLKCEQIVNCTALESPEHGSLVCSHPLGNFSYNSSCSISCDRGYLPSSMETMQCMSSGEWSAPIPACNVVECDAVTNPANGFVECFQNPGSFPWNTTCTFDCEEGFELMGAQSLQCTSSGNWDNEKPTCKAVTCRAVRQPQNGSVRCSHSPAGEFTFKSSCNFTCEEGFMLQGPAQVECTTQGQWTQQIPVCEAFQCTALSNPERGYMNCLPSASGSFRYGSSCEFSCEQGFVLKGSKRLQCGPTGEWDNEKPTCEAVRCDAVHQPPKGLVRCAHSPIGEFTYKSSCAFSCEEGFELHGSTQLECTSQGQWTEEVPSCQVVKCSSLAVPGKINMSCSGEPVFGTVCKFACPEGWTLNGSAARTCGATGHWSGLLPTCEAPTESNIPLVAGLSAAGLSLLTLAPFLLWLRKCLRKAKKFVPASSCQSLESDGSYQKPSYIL

Only a part is listed here, and it is no random draw. Some salts or complexes appear as unconnected parts, following the source record. Calls of active or inactive are those of the source.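 The calls were made as follows: active = mean E-selectin-positive cell signal at least 10% of the positive control, reached in at least 60% of replicates, without over 20% cell loss; inconclusive = no rule given, readout overlaps actives, possibly toxicity-flagged; inactive = the rest, including those meeting only one limit.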

The assay deals with E-selectin (Homo sapiens) (UniProt P16581). In words: inducers of endothelial E-selectin expression – imaging, HUVEC, immunofluorescence imaging, single point, primary screen (AID 686992).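 Also: signal is the percent of cells scored E-selectin positive by PE staining.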 To be noted: at 7.58 µM, active compounds read high, normalized: neutral wells 0, TNF-alpha wells 100. An outline of the steps:
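Test system: HUVEC | Signal: Immunofluorescence imaging | Read-out: Percent E-selectin-positive cells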
Consider `CCCCCOc1ccc(NP(C)(=O)Oc2ccc(Cl)cc2Cl)cc1` (stereo not given), for which the activation was inactive: 0.216%.
The result for `Cc1c([N+](=O)[O-])cc([N+](=O)[O-])c(Br)c1[N+](=O)[O-]` reads inactive: -0.004%; that for `CCN(CC)CCCNc1ccccc1[N+](=O)[O-].O=[N+]([O-])c1cc([N+](=O)[O-])c(O)c([N+](=O)[O-])c1`, inactive: -0.033%; that for `COc1ccc2c(c1O)-c1c(O)c(OC)cc3c1[C@H](C2)[N+](C)(C)CC3.O=[N+]([O-])c1cc([N+](=O)[O-])c([O-])c([N+](=O)[O-])c1[O-]`, inactive: -0.143%.
Take `O=C(OC1CN2CCC1CC2)c1ccc([N+](=O)[O-])cc1` (stereo not given): the activation was inactive: -4.11%.
For `O=C(OCCN1CCN(CCOCc2ccccc2)CC1)C(O)(c1ccccc1)c1ccccc1`, the activation was inactive: -0.082%.
As to `CC(C)c1ccc(OP(C)(=O)Nc2ccc(SC(F)(F)F)cc2)cc1` (stereo not given), the activation was inactive: 0.176%.
The result for `O=[N+]([O-])c1cc([N+](=O)[O-])c(Nc2ccc(Cl)cc2)c([N+](=O)[O-])c1` reads inactive: -0.587%; that for `O=[N+]([O-])c1cc([N+](=O)[O-])c(C(F)(F)F)c([N+](=O)[O-])c1O`, inactive: -0.033%.
As for `CP(=O)(Nc1ccc(SC(F)(F)F)cc1)Oc1ccc(F)cc1` (stereo not given), the activation is inactive: 5.18%.
The result for `Cc1c(C(c2ccc3c(c2)OCO3)c2c(C)n(C)n(-c3ccccc3)c2=O)c(=O)n(-c2ccccc2)n1C.O=[N+]([O-])c1cc([N+](=O)[O-])c(O)c([N+](=O)[O-])c1` reads inactive: 5.25%; that for `O=[N+]([O-])c1ccc(OP2(=O)COCCO2)cc1` (stereo not given), inactive: -0.164%.
For `Cc1cc(-c2cccc3ccccc23)c(C)cn1.O=[N+]([O-])c1cc([N+](=O)[O-])c(O)c([N+](=O)[O-])c1`, the activation was inactive: -0.147%.
The result for `CN(C)C(=O)c1c([N+](=O)[O-])cc([N+](=O)[O-])cc1[N+](=O)[O-]` reads inactive: 0.376%; that for `COc1ccccc1OP(C)(=O)Nc1ccccc1Br` (stereo not given), inactive: 10.5%.
The value for `CCc1ccc(OP(C)(=O)Nc2cccnc2)cc1` (stereo not given) was inactive: 0.5%.
Regarding `O=[N+]([O-])c1cc([N+](=O)[O-])c(Nc2ccccn2)c([N+](=O)[O-])c1`, the activation was inactive: -2.48%.
Take `COc1ccccc1OP(C)(=O)Nc1ccc(Br)cc1` (stereo not given): the activation is inactive: 0.317%.
On to `CP(=O)(Nc1ccc(Cl)cc1Cl)Oc1ccccc1` (stereo not given), for which the activation is inactive: -0.0725%.
The result for `CCCCCCCCCCCCCCCC1C[N+](C)(C)CCOP(C)(=O)O1` (stereo not given) reads inactive: -0.283%.
The result for `CP(=O)(OCCOc1ccccc1)OCCOc1ccccc1` reads inactive: 7.18%.
As for `Cc1cc(C)cc(OP(C)(=O)Nc2cccc(C(F)(F)F)c2)c1` (stereo not given), the activation is inactive: 2.44%.
The result for `O=C1C(O)=C([N+](=O)[O-])C(=O)C(O)=C1[N+](=O)[O-]` reads inactive: 0.141%; that for `Cc1cc(C)cc(OP(C)(N)=O)c1` (stereo not given), inactive: -2.07%; that for `CCOC(=O)c1ccc(NP(C)(=O)Oc2ccccc2)cc1` (stereo not given), inactive: -1.59%.
Take `O=[N+]([O-])c1ccc2c(c1)C=Nc1ccccc1O2`: the activation was inactive: 0.422%.
The result for `Cc1cccc(C)c1OP(C)(N)=O` (stereo not given) reads inactive: -1.24%; that for `O=[N+]([O-])c1cc([N+](=O)[O-])c(Nc2cccnc2)c([N+](=O)[O-])c1`, inactive: -0.214%; that for `COc1ccccc1-c1ccccn1.O=[N+]([O-])c1cc([N+](=O)[O-])c(O)c([N+](=O)[O-])c1`, inactive: 0.222%.
The result for `CCN(CC)CCCOC(=O)C(O)(c1ccccc1)c1ccccc1` reads inactive: -2.99%; that for `O=[N+]([O-])c1cc([N+](=O)[O-])c(O)c([N+](=O)[O-])c1.c1ccc(Oc2ccncc2)cc1`, inactive: -0.181%; that for `CP(=O)(Oc1ccccc1)OC(c1ccccc1)C(F)(F)F` (stereo not given), inactive: -0.368%.
The value for `CP(=O)(Nc1ccc(SC(F)(F)F)cc1)Oc1ccc(Cl)cc1` (stereo not given) was inactive: 0.0295%; that for `COc1ccccc1OP(C)(=O)Nc1ccccc1` (stereo not given) was inactive: 0.0365%; that for `COc1ccc(-c2ccccn2)cc1.O=[N+]([O-])c1cc([N+](=O)[O-])c(O)c([N+](=O)[O-])c1` was inactive: 0.086%.
As to `CP(=O)(Nc1ccc(SC(F)(F)F)cc1)Oc1ccccc1` (stereo not given), the activation is inactive: 0.646%.
The result for `CN1CCCCC1COC(=O)C1(O)c2ccccc2CCc2ccccc21` (stereo not given) reads inactive: -0.243%.
`O=[N+]([O-])c1cc([N+](=O)[O-])c(Nc2nnnn2CCO)c([N+](=O)[O-])c1`: the activation was inactive: 0.0155%.
Turning to `O=[N+]([O-])c1cc([N+](=O)[O-])c(-c2cnn(-c3ccccc3)c2)c([N+](=O)[O-])c1`, the activation was inactive: 0.0485%.
The result for `CN(Cc1cccnc1)C(=O)COc1ccc(Cl)c(Cl)c1.O=[N+]([O-])c1cc([N+](=O)[O-])c(O)c([N+](=O)[O-])c1` reads inactive: 0.13%; that for `CP(=O)(Nc1cccc(Br)c1)Oc1ccccc1` (stereo not given), inactive: -1.32%; that for `CCOC(=O)c1ccc(NP(C)(=O)Oc2cc(C)cc(C)c2)cc1` (stereo not given), inactive: -1.09%.
On to `COc1ccccc1OP(C)(=O)Nc1cccc(Br)c1` (stereo not given), for which the activation is inactive: -0.546%.
As for `CC1=NCCc2c1[nH]c1ccccc21.O=[N+]([O-])c1cc([N+](=O)[O-])c(O)c([N+](=O)[O-])c1`, the activation was inactive: -0.09%.
The value for `O=C(O)c1cccc(Nc2c([N+](=O)[O-])cc([N+](=O)[O-])cc2[N+](=O)[O-])c1` was inactive: -0.524%.
